Measurements taken from patent publication US6083917A, “Methods and compositions for the identification, characterization and inhibition of farnesyltransferase” (Board of Regents, The University of Texas System, priority 1992, dated 2000).
pIC50: −log10 of the molar value. Read-outs that look alike come from different tables or passages of the source.

Target: rat brain farnesyltransferase (Rattus norvegicus, UniProt Q02293+Q04631)
Test: Farnesyltransferase assay: transfer of [3H]farnesyl from [3H]FPP to p21H-ras (TCA filter assay), competition by peptides
Type: biochemical
Parameters: Brains from 50 male Sprague-Dawley rats (100-150 g) were homogenized; from tissue; host or cells: rat brain (male Sprague-Dawley rats)
Experimental: Farnesyltransferase activity was determined by measuring the amount of ^3 H-farnesol transferred from all-trans ^3 H]farnesyl pyrophosphate ([^3 H]FPP) to p21^H-ras protein. The standard reaction mixture contained the following concentrations of components in a final volume of 25 μl: 50 mM Tris-chloride (pH 7.5), 50 μM ZnCl2, 20 mM KCl, 1 mM DTT, and 40 μM p21^H-ras. The mixture also contained 10 pmoles of [^3 H]FPP (~30,000 dpm/pmol) and 1.8-3.5 μg of partially purified farnesyltransferase (see below). After incubation for 1 hour at 37° C. in 12×75-mm borosilicate tubes, the reaction was stopped by addition of 0.5 ml of 4% SDS and then 0.5 ml of 30% trichloroacetic acid (TCA).
The tubes were vortexed and left on ice for 45-60 min, after which 2 ml of a 6% TCA/2% SDS solution were added. The mixture was filtered on a 2.5-cm glass fiber filter with a Hoefer filtration unit (FH 225). The tubes were rinsed twice with 2 ml of the same solution, and each filter was washed five times with 2 ml of 6% TCA, dried, and counted in a scintillation counter. One unit of activity is defined as the amount of enzyme that transfers 1 pmol of [^3 H]farnesol from [^3 H]FPP into acid-precipitable p21^H-ras per hour under the standard conditions.
The standard assay involved measuring the amount of [^3 H]farnesyl transferred from all-trans [^3 H]FPP to recombinant human p21^H-ras as described in Example I. Each reaction mixture contained the following concentrations of components in a final volume of 25 μl: 50 mM Tris-chloride (pH 7.5), 50 μM ZnCl2, 30 mM KCl, 1 mM DTT, 30 or 40 μM p21^H-ras, 15 pmol [^3 H]FPP (12-23,000 dpm/pmol), 4 to 7.5 μg of partially purified farnesyltransferase (Mono Q fraction, see Example I), and the indicated concentration of competitor peptide added in 3 μl of 10 mM DTT. […] This blank value was subtracted before calculating "% of control" values.
The amount of [^3 H]farnesyl transferred from all-trans-[^3 H]farnesyl pyrophosphate to recombinant p21^H-ras was measured in a filter assay as previously described (62).

[1] = Table II, partially purified rat farnesyltransferase, p21H-ras acceptor, seven concentrations 0.03 to 100 μM, read-out: Concentration for 50% Inhibition
[2] = Example II, partially purified rat brain enzyme, p21H-ras acceptor, read-out: Concentration giving 50% inhibition of farnesyltransferase (text, FIG. 14 / Table II)

Compound CC[C@H](C)[C@H](NC(=O)[C@@H](NC(=O)[C@@H](N)CS)C(C)C)C(=O)N[C@@H](C)C(=O)O [CVIA] has a pIC50 of 5.30.
For CC(C)C[C@H](NC(=O)[C@H](CC(C)C)NC(=O)[C@H](CC(C)C)NC(=O)[C@@H](N)CS)C(=O)O [CLLL], the pIC50 [1] was 4.66.
CC[C@H](C)[C@H](NC(=O)[C@@H](NC(=O)[C@@H](N)CS)C(C)C)C(=O)N[C@@H](CO)C(=O)O [CVIS] gave a pIC50 [1] of 6.00.
Work on CC(C)C[C@H](NC(=O)[C@@H](NC(=O)[C@@H](N)CS)C(C)C)C(=O)N[C@@H](CO)C(=O)O [CVLS] yielded a pIC50 [1] of 5.52.
Compound CSCC[C@H](NC(=O)[C@H](CC(C)C)NC(=O)[C@@H](NC(=O)[C@@H](N)CS)C(C)C)C(=O)O [CVLM] has a pIC50 [1] of 6.82.
Work on CSCC[C@H](NC(=O)[C@H](Cc1ccccc1)NC(=O)[C@@H](NC(=O)[C@@H](N)CS)C(C)C)C(=O)O [CVFM, Cys-Val-Phe-Met] yielded a pIC50 [2] of 7.60, a pIC50 (FIG. 23A, Mono Q fraction, 0.5 μM [3H]farnesyl pyrophosphate, 30 min at 37° C., read-out: Concentration giving 50% inhibition of farnesylation of p21H-ras) of 7.15 and a pIC50 (Table III footnote, 3-month period, read-out: 50% inhibition values, range over 9 consecutive experiments) of 7.05 to 7.49.
CC[C@H](C)[C@H](NC(=O)[C@H](CC(C)C)NC(=O)[C@@H](N)CS)C(=O)N[C@@H](CC(C)C)C(=O)O [CLIL] showed a pIC50 [1] of 4.77.
With CC[C@H](C)[C@H](NC(=O)[C@H](C)NC(=O)[C@@H](N)CS)C(=O)N[C@@H](CC(C)C)C(=O)O [CAIL] the pIC50 [2] was 4.00 and the pIC50 [1] was 4.00.
Compound CC[C@H](C)[C@H](NC(=O)[C@@H](NC(=O)[C@@H](N)CS)[C@@H](C)CC)C(=O)N[C@@H](CS)C(=O)O [CIIC] has a pIC50 [1] of 6.46.
In the case of CC[C@H](C)[C@H](NC(=O)[C@@H](NC(=O)[C@@H](N)CS)C(C)C)C(=O)N[C@@H](CC(C)C)C(=O)O [CVIL], the pIC50 [2] was 4.92 and the pIC50 [1] was 4.96.
For CC[C@H](C)[C@H](NC(=O)[C@@H](NC(=O)[C@@H](N)CS)[C@@H](C)CC)C(=O)N[C@@H](CO)C(=O)O [CIIS], the pIC50 [1] was 6.46.
In the case of CC(C)[C@H](NC(=O)[C@H](CS)NC(=O)[C@@H](N)CS)C(=O)N[C@@H](CCC(N)=O)C(=O)O [CCVQ], the pIC50 [1] was 6.46.
For CC(C)[C@H](NC(=O)[C@@H](NC(=O)[C@@H](N)CS)[C@@H](C)O)C(=O)N[C@@H](C)C(=O)O [CTVA], the pIC50 [2] was 4.52 and the pIC50 [1] was 4.52.
CC[C@H](C)[C@H](NC(=O)[C@@H](N)CS)C(=O)N[C@@H](CCCCN)C(=O)N[C@@H](CO)C(=O)O [CIKS] gave a pIC50 [1] of less than 4.00.
